Where a chain is given by its changes, count along the chain named.
Key:
Test in all cases: H2O2 detection, horseradish peroxidase / o-dianisidine coupled assay
Assay type in all cases: biochemical
Settings in all cases: 50 mM Tris-HCl pH 8.0, 0.1 mM FMN, 30 °C
ZmGO1 [1] = molecular target: T1, ZmGO1 (Zea mays, UniProt A0A3L6E0R4, T159V)
T1 construct: gene GO1; full length, N-terminal His-tag, pET28a, expressed in Escherichia coli
T1 sequence (A0A3L6E0R4 1-369 T159V): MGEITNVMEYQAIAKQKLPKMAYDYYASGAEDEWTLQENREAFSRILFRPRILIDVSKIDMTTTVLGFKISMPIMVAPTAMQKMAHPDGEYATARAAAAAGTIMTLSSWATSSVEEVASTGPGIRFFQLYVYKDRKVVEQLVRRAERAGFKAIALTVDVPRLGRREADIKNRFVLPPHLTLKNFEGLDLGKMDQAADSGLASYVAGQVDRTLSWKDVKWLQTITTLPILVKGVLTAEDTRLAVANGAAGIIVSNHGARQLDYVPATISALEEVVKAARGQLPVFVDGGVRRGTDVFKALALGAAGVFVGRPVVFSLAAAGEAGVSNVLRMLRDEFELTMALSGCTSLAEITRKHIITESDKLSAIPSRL

ZmGO1 [2] = molecular target: T2, ZmGO1 (Zea mays, UniProt A0A3L6E0R4, T266D)
T2 construct: gene GO1; full length, N-terminal His-tag, pET28a, expressed in Escherichia coli
T2 sequence (A0A3L6E0R4 1-369 T266D): T1 sequence (A0A3L6E0R4 1-369 T159V) with V159T, T266D

ZmGO1 [3] = molecular target: T3, ZmGO1 (Zea mays, UniProt A0A3L6E0R4, T5D)
T3 construct: gene GO1; full length, N-terminal His-tag, pET28a, expressed in Escherichia coli
T3 sequence (A0A3L6E0R4 1-369 T5D): T1 sequence (A0A3L6E0R4 1-369 T159V) with T5D, V159T

ZmGO1 [4] = molecular target: T4, ZmGO1 (Zea mays, UniProt A0A3L6E0R4)
T4 construct: gene GO1; full length, N-terminal His-tag, pET28a, expressed in Escherichia coli
T4 sequence (A0A3L6E0R4 1-369): T1 sequence (A0A3L6E0R4 1-369 T159V) with V159T

Km (ZmGO1 [1]): 46 ± 20 µM
Km (ZmGO1 [2]): 173 ± 65 µM
Km (ZmGO1 [3]): 157 ± 31 µM
Km (ZmGO1 [4]): 126 ± 34 µM
Structure (SMILES): O=C(O)CO [glycolate]

From PMC7020226 (Plants, 2019)
